## Antibody variant affinities, Ab-95 light chain, assay 2

Values reported by Engelhart et al. 2022, doi:10.1038/s41597-022-01779-4 (FLAb copy).

The target is the same throughout: PDVDLGDISGINAS, from the HR2 region of SARS-CoV-2 spike.

Parent scFv Ab-95: VH joined to VL by a (GGGGS)3 linker. Changes lie in the light chain CDRs alone.
VH: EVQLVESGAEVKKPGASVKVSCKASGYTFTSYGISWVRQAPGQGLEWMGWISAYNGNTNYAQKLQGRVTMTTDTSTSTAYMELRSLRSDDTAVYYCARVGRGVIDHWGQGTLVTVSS
VL: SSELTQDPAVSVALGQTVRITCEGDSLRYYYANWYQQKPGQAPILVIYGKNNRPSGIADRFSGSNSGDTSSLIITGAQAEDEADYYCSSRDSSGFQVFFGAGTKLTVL

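The library (AAYL52) carries one to three amino acid substitutions per variant, with no insertions or deletions. In AlphaSeq, yeast of one mating type display the scFv and yeast of the other type display the target. The frequency of each diploid, read from paired DNA barcodes, reflects how well the two displayed proteins bind. The ratio of observed to expected reads was calibrated, replicate by replicate, on BCL2-family standards whose Kd was known from biolayer interferometry. Mating was done three times.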

Positions count from residue 1 of the parent VL; S26C puts C in place of S.
The read-out is the apparent dissociation constant on a log10 scale (nM): the lower, the stronger.
"n.d." means that the variant was in the library but no mating with the target was seen in that replicate; the authors take this as a sign of poor binding, and no number exists.
Background: pairings of library AAYL52 with three empty control strains gave a value in 28% of cases (median 3.91, 5th percentile 2.90). Values in that range, when seen in few replicates, are hard to tell from nonspecific mating. The control count says in how many pairings with the empty strains this scFv gave a signal, with their mean in brackets.

{"changes": "S26C S93I Q96Y", "log10 Kd, replicates": "4.16 / 3.66 / n.d.", "signal with controls": "7 of 9 (3.80)"}
{"changes": "E23D A32G F98S", "log10 Kd, replicates": "n.d. / n.d. / n.d.", "signal with controls": "3 of 9 (3.94)"}
{"changes": "S89V D91A", "log10 Kd, replicates": "2.76 / 2.46 / 3.25", "signal with controls": "3 of 9 (3.78)"}
{"changes": "Y29Q N51A F98A", "log10 Kd, replicates": "3.39 / 3.00 / 2.93", "signal with controls": "4 of 9 (4.63)"}
{"changes": "G24L S88L S92H", "log10 Kd, replicates": "n.d. / n.d. / n.d.", "signal with controls": "2 of 9 (3.49)"}
{"changes": "R28A Y31I D91G", "log10 Kd, replicates": "n.d. / n.d. / n.d.", "signal with controls": "2 of 9 (4.31)"}
{"changes": "E23M G24H S93A", "log10 Kd, replicates": "2.98 / 2.96 / 2.61", "signal with controls": "3 of 9 (4.37)"}
{"changes": "E23G N51I S88L", "log10 Kd, replicates": "n.d. / n.d. / 3.09", "signal with controls": "0 of 9"}
{"changes": "E23V G94D V97R", "log10 Kd, replicates": "2.67 / 3.32 / 3.49", "signal with controls": "0 of 9"}
{"changes": "S92C G94R", "log10 Kd, replicates": "2.64 / 2.90 / 2.57", "signal with controls": "2 of 9 (4.59)"}
{"changes": "L27Y N52H R90C", "log10 Kd, replicates": "4.31 / n.d. / n.d.", "signal with controls": "3 of 9 (3.80)"}
{"changes": "N51S S89I G94K", "log10 Kd, replicates": "3.60 / 5.86 / 3.29", "signal with controls": "4 of 9 (3.73)"}
{"changes": "S26M R28L Q96L", "log10 Kd, replicates": "n.d. / 4.49 / n.d.", "signal with controls": "4 of 9 (4.14)"}
{"changes": "Y29Q P54S S89Y", "log10 Kd, replicates": "3.02 / 5.25 / n.d.", "signal with controls": "1 of 9 (2.68)"}
{"changes": "A32E G49M Q96K", "log10 Kd, replicates": "4.58 / n.d. / n.d.", "signal with controls": "5 of 9 (3.71)"}
{"changes": "S26M R53L S88D", "log10 Kd, replicates": "3.89 / n.d. / 4.25", "signal with controls": "2 of 9 (3.80)"}
{"changes": "G24T D25G V97I", "log10 Kd, replicates": "5.62 / 3.34 / n.d.", "signal with controls": "1 of 9 (4.37)"}
{"changes": "Y31I R90Q S93N", "log10 Kd, replicates": "3.84 / 3.93 / n.d.", "signal with controls": "1 of 9 (3.26)"}
{"changes": "A32F N51Q F98H", "log10 Kd, replicates": "4.64 / n.d. / 3.06", "signal with controls": "2 of 9 (3.47)"}

The opening 2 entries, copied out:

changes	log10 Kd, replicates	signal with controls
S26C S93I Q96Y	4.16 / 3.66 / n.d.	7 of 9 (3.80)
E23D A32G F98S	n.d. / n.d. / n.d.	3 of 9 (3.94)